These are literature values, as cited in US20130122099A1, “POLYETHYLENE GLYCOL-COATED SODIUM CARBONATE AS A PHARMACEUTICAL EXCIPIENT AND COMPOSITIONS PRODUCED FROM THE SAME” (priority 2008, published 2013).

As usually defined, the pKa is the negative logarithm of the acid dissociation constant.

Turning to `Cc1nc2n(c(=O)c1CCN1CCC(c3noc4cc(F)ccc34)CC1)CCCC2` [risperidone], the pKa is 7.9.
